## scFv variants of Ab-14 (light chain) against a SARS-CoV-2 spike peptide

Values reported by Engelhart et al. 2022, doi:10.1038/s41597-022-01779-4 (FLAb copy).

All variants were tested on one target, the spike HR2 peptide PDVDLGDISGINAS (SARS-CoV-2).

Parent: Ab-14, a human scFv built as VH, three GGGGS repeats, VL. Only the CDRs of the light chain vary.
VH: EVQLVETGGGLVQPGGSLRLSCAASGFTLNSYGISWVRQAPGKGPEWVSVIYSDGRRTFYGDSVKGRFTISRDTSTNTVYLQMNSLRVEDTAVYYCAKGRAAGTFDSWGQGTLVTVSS
VL: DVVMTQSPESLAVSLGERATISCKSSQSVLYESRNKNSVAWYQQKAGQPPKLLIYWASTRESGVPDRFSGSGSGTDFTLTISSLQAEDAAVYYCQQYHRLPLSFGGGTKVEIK

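AAYL50 was designed without a model: most single CDR substitutions and a random sample of double and triple ones. In AlphaSeq, yeast of one mating type display the scFv and yeast of the other type display the target. Binding brings cells together so that they mate, and sequencing counts the barcode pairs among the diploids. A regression on co-assayed BCL2-family reference pairs converts the normalised counts of each replicate to an apparent Kd. Each pool was mated in three replicate cultures.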

Variants are written as CDR1, CDR2 and CDR3 of the light chain (limits as in the source). Parent: KSSQSVLYESRNKNSVA, WASTRES, QQYHRLPLS. Affinities are written as log10 Kd with Kd in nM; a lower number is a better binder. A mean of the replicates is given; it leaves out those without a signal. "nd" means that the variant was in the library but no mating with the target was seen in that replicate; the authors take this as a sign of poor binding, and no number exists. Three control strains display no target. For library AAYL50, 18% of the pairings with them gave a signal, with a median of 4.19 and one signal in twenty below 2.99, so weak values seen in few replicates may be background. Also given: how often the same scFv was detected with the empty control strains, with their mean in brackets.

CDR-L1 | CDR-L2 | CDR-L3 | log10 Kd, replicates | mean log10 Kd (nM) | control signals
KDSQSVLYESRNKNSVA | WASDRES | QRYHRLPLS | nd nd nd | nd | 2 of 9 (5.06)
KSSQSVLYESRNKLSVA | WASTRES | QQYRRLPLI | nd nd 3.73 | 3.73 | 1 of 9 (5.14)
KSSQSVMYESREKNSVA | HASTRES | QQYHRLPLS | 0.31 0.49 0.42 | 0.40 | 6 of 9 (4.57)
KSSQSVLYESNMKNSVA | WASTRES | QQVHRLPLS | nd nd nd | nd | 2 of 9 (3.83)
KSIRSVLYESRNKNSVA | WASTRES | QQYHRLPQS | 2.21 2.33 2.91 | 2.48 | 4 of 9 (3.64)
KSLQSVLYESRNKNSVA | WASTREI | QQYHQLPLS | 1.16 1.21 1.39 | 1.25 | 0 of 9
KQSQSVLYESRNKNSVA | WLSTRTS | QQYHRLPLS | 3.89 3.57 4.07 | 3.84 | 2 of 9 (4.64)
KSSQSVLYESRRKNSVA | WASTRDS | QWYHRLPLS | 2.23 1.90 1.92 | 2.01 | 2 of 9 (4.54)
KSSQSVLYESRNKNIVA | IASTREH | QQYHRLPLS | nd nd nd | nd | 2 of 9 (4.27)
KSSQSVLYESRNKNSVA | WASTRES | QQYHRGPKS | 0.99 0.95 1.06 | 1.00 | 0 of 9
KSSQSVLYESRNKNWVA | WASERVS | QQYHRLPLS | 2.36 2.11 2.20 | 2.22 | 0 of 9
KSSQSVLYESRNKNTVA | WASTRPS | QQYHRLPLS | nd 3.47 3.83 | 3.65 | 5 of 9 (4.35)
KSSQSVLYEMRNKNSVA | WASTREA | WQYHRLPLS | 1.32 1.70 1.39 | 1.47 | 2 of 9 (2.69)
KSSQSCLYESRNKNSEA | WASARES | QQYHRLPLS | nd nd nd | nd | 0 of 9
KSSQNVLYESRNKNSVG | WASTRES | QQYHRLPQS | nd 4.79 4.04 | 4.42 | 5 of 9 (4.48)
KSSQSVLYESRNKNSCA | WASTRES | QTYHRLVLS | nd 3.20 nd | 3.20 | 0 of 9
KSSQSVLYESANKNSVA | WASERES | QQPHRLPLS | 0.24 0.49 0.39 | 0.37 | 2 of 9 (4.40)
KSSQSVLYESRNKNRVA | WASTRWS | QQYHGLPLS | nd nd nd | nd | 1 of 9 (2.63)
KSSQSVHYESRNKNSVA | WASTMES | QQYHLLPLS | 3.65 nd 3.45 | 3.55 | 1 of 9 (3.08)
KSIQSVLYESRNKNSVA | WASTFES | KQYHRLPLS | nd nd nd | nd | 1 of 9 (4.87)
KSSQSVLYESRNANSVA | WASTRES | QQHHDLPLS | nd nd nd | nd | 3 of 9 (3.61)
KSSQSVLYESRNKNSVA | WESTLES | QQYHRLILS | 3.04 2.99 1.61 | 2.55 | 0 of 9
KSSQSVLYESRNKNSVA | KASTRES | QQYHRLPNS | 0.29 0.57 0.37 | 0.41 | 1 of 9 (3.92)
KSYQSVLYESRNKNSVA | WASTRES | QQYHRLPSS | nd nd nd | nd | 0 of 9
KSKQSVLYESRNKNSVA | WAKTRES | QQYHRLVLS | nd 4.07 nd | 4.07 | 4 of 9 (3.95)
KSSQSVLYESRPKNSVQ | WASTRES | RQYHRLPLS | 6.61 4.47 nd | 5.54 | 1 of 9 (4.31)
KSSQSVLYEIRNKNSVS | WASTREY | QQYHRLPLS | nd nd nd | nd | 3 of 9 (3.58)
KSSQSVLYESRNKNSVA | WASTRES | QQYKGLPLR | 4.91 3.84 4.09 | 4.28 | 9 of 9 (4.70)
KSSQSVLYEGRNKNSVA | MASTRES | QQYHRLPLF | 1.27 1.38 1.50 | 1.38 | 6 of 9 (3.74)
KSSQSVLKESRNKNSVA | WASTIKS | QQYHRLPLS | nd nd 5.11 | 5.11 | 4 of 9 (4.19)
KISQSVLYESRNKNSVA | WASTRES | QQYPRAPLS | 0.18 0.38 0.20 | 0.26 | 1 of 9 (4.60)
KHSESVLYEDRNKNSVA | WASTRES | QQYHRLPLS | 0.69 0.75 0.65 | 0.70 | 2 of 9 (3.89)
KSSQIVHWESRNKNSVA | WASTRES | QQYHRLPLS | 0.84 1.19 1.06 | 1.03 | 0 of 9
KSSQMVHYESRDKNSVA | WASTRES | QQYHRLPLS | 1.80 1.64 1.73 | 1.73 | 3 of 9 (3.59)
KSSQYVLYESRNKNSVA | WASTRES | QQYHRLPLS | 1.88 1.92 2.10 | 1.97 | 4 of 9 (4.22)
KISQSVLYESRNKNSVQ | WASTRES | QQYHTLPLS | 4.37 nd 5.63 | 5.00 | 4 of 9 (3.68)
MSSQSVLYESRNKNSTA | WASTRES | QQYHRLPFS | nd 4.16 nd | 4.16 | 3 of 9 (4.18)
KSSQSCLYESRNKNSVA | WASTREC | QQYHRLPLD | nd nd nd | nd | 1 of 9 (3.15)
KSSQSVLYEHRNKNSVA | WISIRES | QQYHRLPLS | nd nd nd | nd | 0 of 9
KSSQSVLYEIREKNSVA | WASTRES | QQYHRRPLS | nd nd nd | nd | 3 of 9 (3.67)
KSSQWVLYESRNKNSMA | WASTRNS | QQYHRLPLS | 2.66 2.98 3.81 | 3.15 | 4 of 9 (4.30)

Picked from the list: the 6 lowest averages where every replicate gave a value.

CDR-L1	CDR-L2	CDR-L3	log10 Kd, replicates	mean log10 Kd (nM)	control signals
KISQSVLYESRNKNSVA	WASTRES	QQYPRAPLS	0.18 0.38 0.20	0.26	1 of 9 (4.60)
KSSQSVLYESANKNSVA	WASERES	QQPHRLPLS	0.24 0.49 0.39	0.37	2 of 9 (4.40)
KSSQSVMYESREKNSVA	HASTRES	QQYHRLPLS	0.31 0.49 0.42	0.40	6 of 9 (4.57)
KSSQSVLYESRNKNSVA	KASTRES	QQYHRLPNS	0.29 0.57 0.37	0.41	1 of 9 (3.92)
KHSESVLYEDRNKNSVA	WASTRES	QQYHRLPLS	0.69 0.75 0.65	0.70	2 of 9 (3.89)
KSSQSVLYESRNKNSVA	WASTRES	QQYHRGPKS	0.99 0.95 1.06	1.00	0 of 9